Laboratory results reported in ChEMBL document CHEMBL3879907, “8-azabicyclo[3.2.1]octane compounds as mu opioid receptor antagonists” (2014).

Chains of the proteins cited; added tags and fusions are not shown. Lines headed by an entry give the natural chain unless they say otherwise; changes in a name come on top.
UniProt P41144: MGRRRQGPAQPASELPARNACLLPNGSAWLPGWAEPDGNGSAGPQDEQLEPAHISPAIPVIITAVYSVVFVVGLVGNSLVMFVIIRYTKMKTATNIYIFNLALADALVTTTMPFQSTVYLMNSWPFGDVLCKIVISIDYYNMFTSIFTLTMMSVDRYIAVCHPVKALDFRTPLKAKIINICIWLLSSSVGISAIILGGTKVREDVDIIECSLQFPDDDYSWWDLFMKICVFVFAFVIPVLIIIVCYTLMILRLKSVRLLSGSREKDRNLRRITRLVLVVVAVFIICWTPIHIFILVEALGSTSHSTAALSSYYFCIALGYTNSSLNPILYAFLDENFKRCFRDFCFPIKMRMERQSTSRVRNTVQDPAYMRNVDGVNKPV

Target: Kappa-type opioid receptor (Cavia porcellus, UniProt P41144)
Assay: Displacement of [3H]-diprenorphine from guinea pig kappa opioid receptor expressed in CHOK1 cell membranes
Details: cho-k1

## NC(=O)c1cccc([C@H]2C[C@H]3CC[C@@H](C2)N3CCN(CCc2ccccc2)C(=O)CO)c1
  pKi: 7 to 10.5
